Drawing on publication PMC10831936 (iScience, 2024), this text covers IC50 for two compounds.

Protein sequences, listed by entry. Tags and fused reporters are not part of them. Residues count along the entry.
UniProt P00533, 25-1210: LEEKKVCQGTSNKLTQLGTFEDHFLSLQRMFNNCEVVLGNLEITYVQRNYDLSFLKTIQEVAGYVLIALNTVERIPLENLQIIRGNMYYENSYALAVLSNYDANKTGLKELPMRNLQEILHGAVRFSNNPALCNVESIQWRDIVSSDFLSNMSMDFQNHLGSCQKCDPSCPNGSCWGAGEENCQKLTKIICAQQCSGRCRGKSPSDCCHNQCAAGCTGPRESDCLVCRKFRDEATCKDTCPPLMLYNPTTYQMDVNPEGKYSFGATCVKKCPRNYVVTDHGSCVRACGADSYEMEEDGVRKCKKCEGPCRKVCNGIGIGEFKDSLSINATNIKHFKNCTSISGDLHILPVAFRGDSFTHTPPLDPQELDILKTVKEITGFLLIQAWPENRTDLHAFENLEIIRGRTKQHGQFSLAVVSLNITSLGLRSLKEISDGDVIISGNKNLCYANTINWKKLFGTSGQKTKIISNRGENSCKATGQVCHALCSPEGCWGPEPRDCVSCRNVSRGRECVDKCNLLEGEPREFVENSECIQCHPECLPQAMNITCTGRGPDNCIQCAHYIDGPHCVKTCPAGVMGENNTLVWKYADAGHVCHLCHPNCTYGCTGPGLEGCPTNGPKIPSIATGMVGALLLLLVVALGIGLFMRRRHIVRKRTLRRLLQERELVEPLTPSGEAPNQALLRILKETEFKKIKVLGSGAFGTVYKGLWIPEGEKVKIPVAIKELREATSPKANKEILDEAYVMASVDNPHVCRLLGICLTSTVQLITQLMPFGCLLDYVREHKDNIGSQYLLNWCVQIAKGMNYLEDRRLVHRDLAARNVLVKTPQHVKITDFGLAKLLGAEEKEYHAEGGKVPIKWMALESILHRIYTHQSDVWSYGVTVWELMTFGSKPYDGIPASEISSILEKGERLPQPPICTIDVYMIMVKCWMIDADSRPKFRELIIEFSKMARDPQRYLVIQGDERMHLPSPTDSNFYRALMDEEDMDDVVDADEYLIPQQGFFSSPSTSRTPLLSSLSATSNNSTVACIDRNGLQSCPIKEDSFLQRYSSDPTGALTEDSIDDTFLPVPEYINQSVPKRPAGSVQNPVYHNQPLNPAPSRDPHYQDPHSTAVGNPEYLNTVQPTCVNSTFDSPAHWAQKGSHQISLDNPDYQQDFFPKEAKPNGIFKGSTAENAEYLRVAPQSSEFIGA

The target in assay [1] is T1, EGFR (Homo sapiens, UniProt P00533). The assay is described as follows: Split TEV firefly luciferase assay, EGFR. The class given is cell-based.
A further assay has as its target phospho-EGFR (Homo sapiens, UniProt P00533). The assay is described as follows: Western blot of p-EGFR in A549 cells.
The target in assay [2] is T1, EGFR. As to the kind of experiment: ERBBprofiler barcoded split TEV assay, EGFR.

On to `COc1cc2ncnc(Nc3cccc(Cl)c3)c2cc1OC` [AG1478, AG-1478 (Tyrphostin AG-1478)], for which the IC50 on EGFR [1] turned out to be 40 nM; against phospho-EGFR, 0.61 nM; at EGFR [2], 65 nM.

For `CCOc1cc2ncc(C#N)c(Nc3ccc(OCc4ccccn4)c(Cl)c3)c2cc1NC(=O)/C=C/[C@H]1CCCN1C` [Pyrotinib], the results for the half-maximal inhibitory concentration (IC50) on EGFR [1], against phospho-EGFR and on EGFR [2] were 147 nM, 560 nM and 881 nM, respectively.

One may read the IC50 as the concentration that inhibits the measured activity by half. A low value points to greater potency in that assay.
